This note sets out measurements from article PMC11374477 (Journal of the American Chemical Society, 2024).

Amino acid sequences for entries named in this document (tags omitted). Residues count along the entry.
UniProt Q9XJ43, 1-343: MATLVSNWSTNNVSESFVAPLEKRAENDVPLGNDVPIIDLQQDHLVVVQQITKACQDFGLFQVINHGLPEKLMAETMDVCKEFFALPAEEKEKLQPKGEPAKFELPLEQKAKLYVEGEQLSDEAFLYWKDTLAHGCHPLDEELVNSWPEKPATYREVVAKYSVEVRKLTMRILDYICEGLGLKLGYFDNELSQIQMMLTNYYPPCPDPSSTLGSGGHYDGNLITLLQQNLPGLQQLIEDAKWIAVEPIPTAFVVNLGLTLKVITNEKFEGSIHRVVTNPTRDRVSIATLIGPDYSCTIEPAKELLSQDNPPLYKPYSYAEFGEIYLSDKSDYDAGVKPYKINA

The target of this experiment is AbH6H (Atropa belladonna, UniProt Q9XJ43). Conditions: Fe(II)-succinate-Sco product complex.

Take `CN1[C@@H]2CC(OC(=O)[C@H](CO)c3ccccc3)C[C@H]1[C@@H]1O[C@@H]12` (stereo partly shown) [Sco, scopolamine]: the X-ray crystallography result was “we also solved the structure of the AbH6H•Fe^II•succ•Sco product complex”.
